The assay has as its target T1, Alpha-1A adrenergic receptor (Rattus norvegicus, UniProt P43140).
T1 sequence (P43140 whole entry): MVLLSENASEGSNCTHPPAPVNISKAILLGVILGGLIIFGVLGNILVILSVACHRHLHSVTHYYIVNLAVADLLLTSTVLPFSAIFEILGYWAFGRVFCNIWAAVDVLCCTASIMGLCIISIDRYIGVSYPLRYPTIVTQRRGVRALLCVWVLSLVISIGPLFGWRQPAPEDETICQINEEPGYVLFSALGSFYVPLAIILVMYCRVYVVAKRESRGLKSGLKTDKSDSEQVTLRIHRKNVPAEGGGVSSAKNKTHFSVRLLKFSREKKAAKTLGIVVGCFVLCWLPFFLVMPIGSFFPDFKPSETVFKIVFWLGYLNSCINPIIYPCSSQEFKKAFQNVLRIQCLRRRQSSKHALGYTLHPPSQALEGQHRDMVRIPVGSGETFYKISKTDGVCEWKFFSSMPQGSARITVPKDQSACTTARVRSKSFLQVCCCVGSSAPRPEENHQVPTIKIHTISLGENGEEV

Structures are written as SMILES. Values joined by “and” are separate entries in the source; they are usually repeats but may differ in a detail not shown here. Equal values may be shown once.

By Ki is commonly meant a measure of affinity in units of concentration, obtained from inhibition or displacement. A high value points to weaker binding. Take `COC(=O)[C@@H]1[C@H]2C[C@H]3c4[nH]c5ccccc5c4CCN3C[C@@H]2CC[C@@H]1O` [yohimbic acid methyl ester]: the Ki is 236 nM and 230 nM.

The values are drawn from BindingDB's records for doi:10.1007/bf00506193 (1984).
